## Measured affinities in a library of Ab-14 light chain variants

Target: peptide PDVDLGDISGINAS, taken from heptad repeat 2 (HR2) of SARS-CoV-2 spike.

Parent: Ab-14, a human scFv built as VH, the linker GGGGSGGGGSGGGGS, VL. Only the CDRs of the light chain vary.
VH: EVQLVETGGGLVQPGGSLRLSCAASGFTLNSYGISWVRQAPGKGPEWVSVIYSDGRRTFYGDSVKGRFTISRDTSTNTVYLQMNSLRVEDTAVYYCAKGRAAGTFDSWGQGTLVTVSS
VL: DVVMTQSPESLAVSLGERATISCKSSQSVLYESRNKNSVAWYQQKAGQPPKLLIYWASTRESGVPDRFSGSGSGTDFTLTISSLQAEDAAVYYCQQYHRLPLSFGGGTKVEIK

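Phage display of a naive human antibody library on the peptide gave the parent. Designed CDR sequences, proposed from the first random library and measured here. Group labels follow the data file (Ctrl: baseline library sampled from a position-specific scoring matrix, with some repeated check sequences; Rand: our label for a block that the file lists under HC and that is probably the random mutants of the ten best first-round binders; En: ensemble of fine-tuned language models; GP: Gaussian process model; HC: hill climbing; Gen: genetic algorithm; Gibbs: Gibbs sampling; a sequence that several methods proposed may carry one label only). The assay is AlphaSeq: two haploid yeast populations carry antibody and antigen on their surface. Pairs that bind mate more often; barcode pairs of the diploids are counted by sequencing. Each replicate has its own calibration line, from reference interactions of the BCL2 family. Mating was done six times.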

The parent's light chain CDRs are KSSQSVLYESRNKNSVA, WASTRES, QQYHRLPLS; each variant's own CDRs replace them letter for letter. The read-out is the apparent dissociation constant on a log10 scale (nM): the lower, the stronger. The mean shown is taken over the replicates in which the pair was detected. A pair that was not seen in any replicate is written "nd"; this usually means weak binding, but a binder can also be missed.

CDR-L1	CDR-L2	CDR-L3	group	mean log10 Kd (nM)	replicates with signal
TISGVMQTQSHSKNNVA	EVSMRLK	QQYFRLPLE	En_Gen	1.27	6 of 6
VLSATIENQYDEADNIA	DATETSK	QQYARLPLS	En_Gibbs	2.13	6 of 6
KLGAATRFESSNEASIA	NNSTREE	QQYHRLPLS	En_HC	2.43	4 of 6
KLSQSEEYESRQFNSVA	SASQRNL	QQYHRLPLS	GP_Gibbs	0.40	6 of 6
QLAVDRLQEYKMGAAIA	GKTTVED	QQYARLPLS	En_Gibbs	1.48	6 of 6
KVPQSNLYESRNANNVA	SASQRLS	QQYHRLPLS	GP_Gibbs	0.49	6 of 6
QFHQGMIGDQRNMHSIA	NAQAAVP	QYYFRLPLS	En_Gibbs	1.23	6 of 6
SHAQSVLYEVRNKNSVA	WASTRES	QQKSRLPLS	Ctrl	1.52	1 of 6
KITSTMRFEQKNSNNIA	EVSMRTK	QQYVRLPLA	En_Gen	0.25	6 of 6
KLSQSYLYESRNKNSVA	NASLRES	QQYHRLPLS	GP_Gen	0.58	6 of 6
KLRQSTLYEVRNPNSVA	WASTRES	QQYHRLPLS	Rand	0.60	5 of 6
HITYGMYVSGRYKSNIA	QAETRMK	QQYDRLPLI	En_Gen	1.44	6 of 6
IISQSVMFQQTLINSVA	NAQTREQ	QQYHRLPLS	En_HC	0.30	6 of 6
KASQSVLYESRNKNAIA	AASTRES	QQYHRLPLS	Ctrl	1.88	4 of 6
KFSQSDLYEDRAKNSVA	NASTRCW	QQYHRLPLS	GP_Gibbs	0.69	6 of 6
KSSQSFLYESRWKNSVA	AASQRES	QQYHRLPLS	GP_HC	1.12	6 of 6
KIGATLNQMMHLKNNVA	DLVTREN	QQYHRLPLS	En_Gen	1.25	6 of 6
KSSQSVLYESRNKNPVA	SASTRES	QQYHYLPLS	Ctrl	2.33	5 of 6
KSLQSVLPESRNKNSVA	WASTREE	QQYHRLPLS	Ctrl	2.54	5 of 6
KLSSSHLYEERNDNSVA	SASQREM	QQYHRLPLS	GP_Gibbs	0.17	6 of 6
KVSEFMRGLMGRKDSIA	DNNTRGS	QQYDRLPLS	En_Gen	1.84	6 of 6
KLMYSKEYEQRNKNSVA	EASTRES	QQYHRLPLS	GP_Gibbs	0.19	6 of 6
KLQQSVPYESRNKNSVA	NASTREE	QQYHRLPLS	GP_Gen	-0.23	6 of 6
MISQILNMGQFAINSVA	QAETRCN	QQYDRLPLE	En_Gen	2.12	5 of 6
KLSQATRMESRNKASVA	ENSTRES	QQYFRLPLA	En_HC	0.19	6 of 6
SIQFYTENFAEWGDSIA	DVSATTA	QQYHRLPLA	En_Gibbs	1.50	6 of 6
KMSQSVLYESRNKNSVA	WASTREL	QQYHRLPLS	Ctrl	0.73	6 of 6
KVSPSYLYESRNKNSVA	QASTRES	QQYHRLPLS	GP_HC	-0.11	6 of 6
QLDQAYRVGDLWTQSIA	HGSMRVQ	QCYERLPLS	En_Gibbs	2.41	6 of 6
KVSQSEPYESRNKNSVA	NASTRES	QQYHRLPLS	GP_Gen	-0.15	6 of 6
KSSCSEPYDSLNSNSVA	NASQRER	QQYHRLPLS	GP_Gibbs	0.85	6 of 6
KIGMYFGLLTRQANSIA	DNQTRED	QQYNRLPLS	En_Gen	3.13	4 of 6
KLVNFMNRGTHMTSNIA	DAVNRLD	QQYYRLPLA	En_Gen	0.01	6 of 6
KSSQSTLYESRNKNSVA	WASTRES	QQYIRLPLS	Ctrl	nd	0 of 6
KSSQSVLYESRNKNSVA	WASTRVS	QQYHRLPLS	Ctrl	2.32	5 of 6
KSSQSVLYPSRNNNSVA	WASTREV	QQYHRLPLS	Ctrl	3.42	5 of 6
KVPGSNLYESRNKNSVA	HASTRCS	QDYHRLPLS	GP_Gibbs	0.15	6 of 6
MMKMPNHEVNFDKNSVA	EATTKES	QQYHRLPIT	En_Gibbs	0.79	6 of 6
KLQQSVLYESRNKNNVA	GASTRED	QQYHRLPLS	GP_HC	-0.63	6 of 6
KLEQSVLYESRNKNNVA	NASTRES	QQYHRLPLS	GP_Gen	-0.43	6 of 6
GLSQSVEQLSRNKNSVA	NASQREV	QQYHRLPLS	GP_Gibbs	0.17	6 of 6
KSSSSGLYESRMKNSVA	EASTRES	QQYHRLPLS	GP_HC	0.05	6 of 6
HISMMVGTKGYNKQSVA	NAETRSD	QQYHRLPLS	En_HC	0.18	6 of 6
SITQLVGWGQRNKNSVA	QMETREN	QQYDRLPLS	En_HC	0.88	6 of 6
HSSPSVPYESRNKNNVA	NASTRES	QQYHRLPLS	GP_HC	-0.51	6 of 6
KLSQSVEYESRNKNSVA	EASQRES	QQYHRLPLS	GP_Gen	0.29	6 of 6
KMPQGVLYESRNKNSVA	GASTRES	QQYHRLPLS	GP_HC	-0.30	6 of 6
KLPQSVLYESRNKNSVA	DASTRLS	QQYHRLPLS	GP_Gen	-0.15	6 of 6
KLSQSELYESRNKNSVA	EANTRES	QQYHRLPLS	GP_Gen	-0.17	6 of 6
KSSLSVLYESRNKNSVA	WASFRES	QQYHRLPLS	Ctrl	2.14	4 of 6
MISQLYNMGQFAINSVA	QASTRNA	QQYDRLPLM	En_Gen	1.80	5 of 6
IMSDSQERDASRLNNIA	DDYTRAT	QQYARLPLS	En_Gibbs	0.48	6 of 6
LWSQSDLLESRNHNSVA	DASTRCS	QQYHRLPLS	GP_Gibbs	0.44	6 of 6
HISQMVMYGSCNKYNVA	QVSLREE	QQYHRLPLS	En_HC	0.27	6 of 6
SSSQSVLVESRNKNSVA	GASLRES	QQYHRLPLS	Ctrl	nd	0 of 6
KSAYSELGESRNKNSVA	SANTRES	QQYHRLPLS	GP_Gibbs	0.35	6 of 6
KFSQSVPYESSNKNSVA	WATTRES	QQYHRLPLS	Ctrl	0.48	5 of 6
SIGGFMKSLSAHINSVA	DMTNRED	QQYDRLPLM	En_Gen	0.25	6 of 6
KISQSVLYESNNQNSVA	WASTRES	QQYHRLPLS	Ctrl	0.29	6 of 6
KSSSSVLYESRYKNSVA	WASTREP	QQYHRLPLS	Ctrl	1.97	2 of 6
KLSQSVLYESRNKISVA	WASTRES	QQYHRLPLS	Ctrl	2.16	6 of 6
KLSQSQLYESRNKNSVA	NASYRES	QQYHRLPLS	GP_Gen	-0.44	6 of 6
KLSQSVEYESRNKNSVA	HASTRES	QQYHRLPLS	GP_Gen	0.15	6 of 6
TISDSAQQESHNKNSVA	DLSVRGS	QQYHRLPLS	En_HC	0.20	6 of 6
KISQMYRYEQQNSSSIA	EVTTRLN	QSYHRLPLS	En_HC	nd	0 of 6
KSSEEVLYESRNQNSVA	WASTRES	QQYHRLPLS	Ctrl	1.22	6 of 6
KQSQSVLYGERDGNSVA	NASQRLS	QQYHRLPLS	GP_Gibbs	0.76	6 of 6
QIYHGVTGTSRKGNSVA	QAETRLD	QQYHRLPLM	En_HC	1.55	4 of 6

A selection of 11 entries from above:

CDR-L1,CDR-L2,CDR-L3,group,mean log10 Kd (nM),replicates with signal
KLSQSVLYESRNKISVA,WASTRES,QQYHRLPLS,Ctrl,2.16,6 of 6
GLSQSVEQLSRNKNSVA,NASQREV,QQYHRLPLS,GP_Gibbs,0.17,6 of 6
KLSQSVEYESRNKNSVA,HASTRES,QQYHRLPLS,GP_Gen,0.15,6 of 6
HITYGMYVSGRYKSNIA,QAETRMK,QQYDRLPLI,En_Gen,1.44,6 of 6
KFSQSDLYEDRAKNSVA,NASTRCW,QQYHRLPLS,GP_Gibbs,0.69,6 of 6
KSSQSFLYESRWKNSVA,AASQRES,QQYHRLPLS,GP_HC,1.12,6 of 6
KLQQSVLYESRNKNNVA,GASTRED,QQYHRLPLS,GP_HC,-0.63,6 of 6
KLSQSQLYESRNKNSVA,NASYRES,QQYHRLPLS,GP_Gen,-0.44,6 of 6
MISQILNMGQFAINSVA,QAETRCN,QQYDRLPLE,En_Gen,2.12,5 of 6
KLSQATRMESRNKASVA,ENSTRES,QQYFRLPLA,En_HC,0.19,6 of 6
KIGMYFGLLTRQANSIA,DNQTRED,QQYNRLPLS,En_Gen,3.13,4 of 6

In the paper, a design with two or fewer of six values counts as a poor binder. A sequence measured in both rounds can read differently, since the two assays cover different ranges. Background: pairings of all light chain designs with three empty control strains gave a value in 4% of cases (median 2.64, 5th percentile 1.59). Values in that range, when seen in few replicates, are hard to tell from nonspecific mating.

From the AlphaSeq antibody data of Li et al. 2023 (doi:10.1038/s41467-023-39022-2), copy in the FLAb collection.